Laboratory results: PubChem BioAssay (NCI)
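Following 48 hours of exposure in 96-well plates, responses at five concentrations were used to interpolate endpoints linearly. GI50: concentration for 50% inhibition of growth. Definition used: TGI = concentration required for complete inhibition of growth.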

How the values were obtained:
Experiment in all cases: NCI-60 cell line screen, 48 h
MOLT-4 leukemia = test system: MOLT-4 leukemia
A498 renal = test system: A498 renal
HOP-92 NSCLC = test system: HOP-92 NSCLC
NCI-H460 lung = test system: NCI-H460 lung
HOP-62 NSCLC = test system: HOP-62 NSCLC
SNB-19 CNS = test system: SNB-19 CNS
HL-60(TB) leukemia = test system: HL-60(TB) leukemia
SK-OV-3 ovarian = test system: SK-OV-3 ovarian
K-562 leukemia = test system: K-562 leukemia
MALME-3M melanoma = test system: MALME-3M melanoma
SF-268 CNS = test system: SF-268 CNS
COLO 205 colon = test system: COLO 205 colon
SF-539 CNS = test system: SF-539 CNS
IGROV1 ovarian = test system: IGROV1 ovarian
SK-MEL-28 melanoma = test system: SK-MEL-28 melanoma
EKVX NSCLC = test system: EKVX NSCLC
U251 CNS = test system: U251 CNS
PC-3 prostate = test system: PC-3 prostate
NCI-H522 lung = test system: NCI-H522 lung
MCF7 breast = test system: MCF7 breast
SK-MEL-2 melanoma = test system: SK-MEL-2 melanoma
HCT-116 colon = test system: HCT-116 colon
OVCAR-4 ovarian = test system: OVCAR-4 ovarian
ACHN renal = test system: ACHN renal
BT-549 breast = test system: BT-549 breast
SF-295 CNS = test system: SF-295 CNS
HS 578T breast = test system: HS 578T breast
MDA-MB-435 = test system: MDA-MB-435
CCRF-CEM leukemia = test system: CCRF-CEM leukemia
HCT-15 colon = test system: HCT-15 colon
786-0 renal = test system: 786-0 renal
NCI/ADR-RES ovarian = test system: NCI/ADR-RES ovarian
DU-145 prostate = test system: DU-145 prostate
SN12C renal = test system: SN12C renal
KM12 colon = test system: KM12 colon
OVCAR-8 ovarian = test system: OVCAR-8 ovarian
CAKI-1 renal = test system: CAKI-1 renal
SK-MEL-5 melanoma = test system: SK-MEL-5 melanoma
NCI-H322M lung = test system: NCI-H322M lung
SW-620 colon = test system: SW-620 colon
NCI-H23 lung = test system: NCI-H23 lung
RPMI-8226 leukemia = test system: RPMI-8226 leukemia
LOX IMVI melanoma = test system: LOX IMVI melanoma
MDA-N = test system: MDA-N
UACC-257 melanoma = test system: UACC-257 melanoma
MDA-MB-231 breast = test system: MDA-MB-231 breast
UO-31 renal = test system: UO-31 renal
A549 NSCLC = test system: A549 NSCLC
OVCAR-3 ovarian = test system: OVCAR-3 ovarian
HT29 colon = test system: HT29 colon
M14 melanoma = test system: M14 melanoma
T-47D breast = test system: T-47D breast
RXF 393 renal = test system: RXF 393 renal
NCI-H226 lung = test system: NCI-H226 lung
SNB-75 CNS = test system: SNB-75 CNS
SR leukemia = test system: SR leukemia
UACC-62 melanoma = test system: UACC-62 melanoma
OVCAR-5 ovarian = test system: OVCAR-5 ovarian

`O=c1[nH]c2cc([N+](=O)[O-])c(N/N=C/c3ccc([N+](=O)[O-])o3)c([N+](=O)[O-])c2[nH]1` gave a GI50 (MOLT-4 leukemia) of 14.5 µM, a TGI (MOLT-4 leukemia) greater than 100 µM and a GI50 (A498 renal) of 18 µM. It also gave a TGI (A498 renal) of 32.8 µM, a GI50 (HOP-92 NSCLC) of 17.4 µM and a TGI (HOP-92 NSCLC) of 35 µM. For the same compound, the GI50 (NCI-H460 lung) was 16.3 µM, the TGI (NCI-H460 lung) was 32.8 µM and the GI50 (HOP-62 NSCLC) was 3.37 µM. The TGI (HOP-62 NSCLC) was 17.6 µM, the GI50 (SNB-19 CNS) was 7.06 µM and the TGI (SNB-19 CNS) was 22.6 µM. It also gave a GI50 (HL-60(TB) leukemia) of 12.9 µM, a TGI (HL-60(TB) leukemia) of 49.7 µM and a GI50 (SK-OV-3 ovarian) of 16.4 µM. It also gave a TGI (SK-OV-3 ovarian) of 54.4 µM, a GI50 (K-562 leukemia) of 14.4 µM and a TGI (K-562 leukemia) of 81.9 µM. The GI50 (MALME-3M melanoma) was 16.4 µM, the TGI (MALME-3M melanoma) was 30.8 µM and the GI50 (SF-268 CNS) was 10.1 µM. It also gave a TGI (SF-268 CNS) of 28.5 µM, a GI50 (COLO 205 colon) of 9.98 µM and a TGI (COLO 205 colon) of 28.9 µM. For the same compound, the GI50 (SF-539 CNS) was 15 µM, the TGI (SF-539 CNS) was 31.6 µM and the GI50 (IGROV1 ovarian) was 16.3 µM. The TGI (IGROV1 ovarian) was 31.7 µM, the GI50 (SK-MEL-28 melanoma) was 17.6 µM and the TGI (SK-MEL-28 melanoma) was 39.5 µM. For the same compound, the GI50 (EKVX NSCLC) was 17.3 µM, the TGI (EKVX NSCLC) was 32.2 µM and the GI50 (U251 CNS) was 5.68 µM. For the same compound, the TGI (U251 CNS) was 21.4 µM, the GI50 (PC-3 prostate) was 26.7 µM and the TGI (PC-3 prostate) was greater than 100 µM. It also gave a GI50 (NCI-H522 lung) of 5.89 µM, a TGI (NCI-H522 lung) of 23.5 µM and a GI50 (MCF7 breast) of 11.4 µM. It also gave a TGI (MCF7 breast) of 30.9 µM, a GI50 (SK-MEL-2 melanoma) of 12.6 µM and a TGI (SK-MEL-2 melanoma) of 32.7 µM. The GI50 (HCT-116 colon) was 12.9 µM, the TGI (HCT-116 colon) was 27.2 µM and the GI50 (OVCAR-4 ovarian) was 16 µM. The TGI (OVCAR-4 ovarian) was 32.3 µM, the GI50 (ACHN renal) was 15.3 µM and the TGI (ACHN renal) was 29.9 µM. It also gave a GI50 (BT-549 breast) of 11.3 µM, a TGI (BT-549 breast) of 23.8 µM and a GI50 (SF-295 CNS) of 22.5 µM. For the same compound, the TGI (SF-295 CNS) was 69.9 µM, the GI50 (HS 578T breast) was 8.29 µM and the TGI (HS 578T breast) was greater than 100 µM. For the same compound, the GI50 (MDA-MB-435) was 6.6 µM, the TGI (MDA-MB-435) was 21.7 µM and the GI50 (CCRF-CEM leukemia) was 7.5 µM. It also gave a TGI (CCRF-CEM leukemia) of 56.7 µM, a GI50 (HCT-15 colon) of 14.3 µM and a TGI (HCT-15 colon) of 36.5 µM. The GI50 (786-0 renal) was 5.75 µM, the TGI (786-0 renal) was 28.5 µM and the GI50 (NCI/ADR-RES ovarian) was 27.3 µM. For the same compound, the TGI (NCI/ADR-RES ovarian) was greater than 100 µM, the GI50 (DU-145 prostate) was 5.4 µM and the TGI (DU-145 prostate) was 19.6 µM. The GI50 (SN12C renal) was 10.1 µM, the TGI (SN12C renal) was 24.9 µM and the GI50 (KM12 colon) was 7.37 µM. It also gave a TGI (KM12 colon) of 21.6 µM, a GI50 (OVCAR-8 ovarian) of 14 µM and a TGI (OVCAR-8 ovarian) of 44.3 µM. The GI50 (CAKI-1 renal) was 16.5 µM, the TGI (CAKI-1 renal) was 41.8 µM and the GI50 (SK-MEL-5 melanoma) was 11.7 µM. The TGI (SK-MEL-5 melanoma) was 25 µM, the GI50 (NCI-H322M lung) was 6.88 µM and the TGI (NCI-H322M lung) was 19 µM. It also gave a GI50 (SW-620 colon) of 16.4 µM, a TGI (SW-620 colon) greater than 100 µM and a GI50 (NCI-H23 lung) of 12.7 µM. The TGI (NCI-H23 lung) was 29 µM, the GI50 (RPMI-8226 leukemia) was 11.7 µM and the TGI (RPMI-8226 leukemia) was 48.6 µM. It also gave a GI50 (LOX IMVI melanoma) of 5.87 µM, a TGI (LOX IMVI melanoma) of 20.6 µM and a GI50 (MDA-N) of 10.7 µM. For the same compound, the TGI (MDA-N) was 28 µM, the GI50 (UACC-257 melanoma) was 13.7 µM and the TGI (UACC-257 melanoma) was 26.9 µM. For the same compound, the GI50 (MDA-MB-231 breast) was 20.4 µM, the TGI (MDA-MB-231 breast) was 46.8 µM and the GI50 (UO-31 renal) was 15.9 µM. The TGI (UO-31 renal) was 32.4 µM, the GI50 (A549 NSCLC) was 18.1 µM and the TGI (A549 NSCLC) was 36.2 µM. For the same compound, the GI50 (OVCAR-3 ovarian) was 7.52 µM, the TGI (OVCAR-3 ovarian) was 28.2 µM and the GI50 (HT29 colon) was 18.5 µM. It also gave a TGI (HT29 colon) of 36.6 µM, a GI50 (M14 melanoma) of 6.56 µM and a TGI (M14 melanoma) of 22.3 µM. It also gave a GI50 (T-47D breast) of 15 µM, a TGI (T-47D breast) of 42.1 µM and a GI50 (RXF 393 renal) of 14.3 µM. For the same compound, the TGI (RXF 393 renal) was 37.4 µM, the GI50 (NCI-H226 lung) was 10.3 µM and the TGI (NCI-H226 lung) was 61.2 µM. It also gave a GI50 (SNB-75 CNS) of 13.8 µM, a TGI (SNB-75 CNS) of 32.5 µM and a GI50 (SR leukemia) of 5.74 µM. For the same compound, the TGI (SR leukemia) was 50.8 µM, the GI50 (UACC-62 melanoma) was 9.26 µM and the TGI (UACC-62 melanoma) was 21.8 µM. The GI50 (OVCAR-5 ovarian) was 30.9 µM and the TGI (OVCAR-5 ovarian) was 93.8 µM.
